In patent US9320750B2, “Compositions and methods of treatment of drug resistant cancers” (priority 2012, dated 2016):
Entries after “also recorded” stand apart in the source; their conditions may differ.

Experiments:
BT-20 cells = test system: BT-20 cells
Protocol: 1×10^6 cells were seeded in a 10 cm dish 24 hr prior to the experiment. […] Following the treatment time course, cells were washed in PBS, trypsinized, and fixed in 4% paraformaldehyde (PFA) in PBS for 15 min at room temperature (RT), then resuspended in ice cold methanol and incubated overnight at −20° C. Cells were then washed twice in PBS+0.1% Tween and stained with antibodies directed against cleaved forms of caspase-3 and PARP (BD PharMingen). […] Data reported are always percent cleaved-caspase-3/cleaved-PARP double positive cells.
Following the treatment time course, cells were washed, trypsinized, fixed in 4% paraformaldehyde for 15 min at room temperature, resuspended in ice-cold methanol, and incubated overnight at −20° C. Cells were then washed twice in PBS-Tween and stained with antibodies against cleaved caspase-3 and poly(ADP-ribose) polymerase (PARP). Secondary Alexa-conjugated anti-bodies were used for visualization in a BD FacsCaliber flow cytometer.

[1] = test system: panel of breast cancer cell lines; settings: prior treatment with erlotinib (24 hr) then doxorubicin, both 10 μM

C#Cc1cccc(Nc2ncnc3cc(OCCOC)c(OCCOC)cc23)c1 [erlotinib]
cell killing relative to doxorubicin or erlotinib alone (BT-20 cells): not enhanced | apoptosis on coadministration of higher erlotinib concentrations (BT-20 cells; co-administered with doxorubicin instead of time-staggered doses, 8 hr): without observing increased apoptosis; also recorded: does not enhance sensitivity to doxorubicin | intracellular doxorubicin concentration [1]: did not alter the intracellular doxorubicin concentration
